Test system: thrombin-induced complement pathway
Experiment: Inhibition of hemolysis in the thrombin-induced complement pathway (C5, C6, thrombin, then C7, C8, C9)
Type: cell-based
Protocol: These diluted samples were mixed with antibody-sensitized sheep erythrocytes (Complement Technology, Tyler, Tex.) in a 96-well microtitre plate (USA Scientific, Ocala, Fla.) and incubated at 37° C. for 5 minutes. C7 (Complement Technology, Tyler, Tex.) was then added to the wells to achieve a concentration of 15 nM and the plate was returned to 37° C. for 15 minutes. A complex of C8 (10 nM; Complement Technology, Tyler, Tex.) and C9 (25 nM; Complement Technology, Tyler, Tex.) was then added to the assay mixture and the samples were incubated for 30 minutes at 37° C.
The reaction was stopped with the addition of hirudin. The diluted samples were mixed with antibody-sensitized sheep erythrocytes and then incubated for 5 minutes at 37° C. Purified C7 was added and incubated for 15 minutes at 37° C. A complex of purified C8 and C9 was then added and the mixture was incubated for 30 minutes at 37° C.

B1: anti-C5 monoclonal antibody: an anti-C5 monoclonal antibody similar to ECULIZUMAB® (antibody, chains of the INN, looked up)
heavy: QVQLVQSGAEVKKPGASVKVSCKASGYIFSNYWIQWVRQAPGQGLEWMGEILPGSGSTEYTENFKDRVTMTRDTSTSTVYMELSSLRSEDTAVYYCARYFFGSSPNWYFDVWGQGTLVTVSSASTKGPSVFPLAPCSRSTSESTAALGCLVKDYFPEPVTVSWNSGALTSGVHTFPAVLQSSGLYSLSSVVTVPSSNFGTQTYTCNVDHKPSNTKVDKTVERKCCVECPPCPAPPVAGPSVFLFPPKPKDTLMISRTPEVTCVVVDVSQEDPEVQFNWYVDGVEVHNAKTKPREEQFNSTYRVVSVLTVLHQDWLNGKEYKCKVSNKGLPSSIEKTISKAKGQPREPQVYTLPPSQEEMTKNQVSLTCLVKGFYPSDIAVEWESNGQPENNYKTTPPVLDSDGSFFLYSRLTVDKSRWQEGNVFSCSVMHEALHNHYTQKSLSLSLG
light: DIQMTQSPSSLSASVGDRVTITCGASENIYGALNWYQQKPGKAPKLLIYGATNLADGVPSRFSGSGSGTDFTLTISSLQPEDFATYYCQNVLNTPLTFGQGTKVEIKRTVAAPSVFIFPPSDEQLKSGTASVVCLLNNFYPREAKVQWKVDNALQSGNSQESVTEQDSKDSTYSLSSTLTLSKADYEKHKVYACEVTHQGLSSPVTKSFNRGEC
- inhibition of hemolysis by the thrombin-induced complement pathway in words: did not
